Reference: patent publication US20120114665A1 (Regeneron, published 2012)

Biological target: T1, human RANKL (receptor activator of NF-κB ligand) (human, UniProt O14788 140-317, limits assumed)
T1 construct: also called hRANKL; hRANKL native trimer
T1 sequence: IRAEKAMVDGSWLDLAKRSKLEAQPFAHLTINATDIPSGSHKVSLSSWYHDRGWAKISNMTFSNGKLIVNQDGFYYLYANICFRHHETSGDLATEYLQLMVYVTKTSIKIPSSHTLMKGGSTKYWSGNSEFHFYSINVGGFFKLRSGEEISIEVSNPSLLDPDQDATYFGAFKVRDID
Assay: SPR (BIACORE 2000), antibody captured on anti-hFc, hRANKL injected
Description: Equilibrium dissociation constants (KD values) for antigen binding to the selected antibodies generated by hybridoma cell lines described above were determined by surface kinetics in a real-time biosensor surface plasmon resonance assay (BIACORE™ 2000). Each selected antibody was captured on a goat anti-mouse IgG polyclonal antibody surface created through direct chemical coupling to a BIACORE™ chip to form a captured antibody surface.
Each selected antibody was captured on a goat anti-hFc polyclonal antibody (Jackson Immuno Research Lab) surface created through direct chemical coupling to a BIACORE™ chip to form a captured antibody surface (Table 2).

B1: 1G8 (antibody, V domains shown)
VH: QVQLVQSGGGVVQPGRSLRLSCAASGFTFSGYGMHWVRQAPDKGLEWVAVLSYDGTNKYYADSVKGRFTISRDNSKNTLYLQMNSLRAEDTAVYYCAKCLSGTYWGYGMDVWGQGTTVTVSS
VL: not shown
notes: From direct isolation of splenocytes; captured on anti-hFc; also called H4H003N
Binder B1 has a Kd of 8.42 pM.
